Measurements published in patent CN117384281A (DONGGUAN PENGZHI BIOTECHNOLOGY CO LTD, dated 2024).

Amino acid sequences for entries named in this document (tags omitted). Residues count along the entry.
UniProt P69905, 2-142 limits assumed, chain 1 of 2: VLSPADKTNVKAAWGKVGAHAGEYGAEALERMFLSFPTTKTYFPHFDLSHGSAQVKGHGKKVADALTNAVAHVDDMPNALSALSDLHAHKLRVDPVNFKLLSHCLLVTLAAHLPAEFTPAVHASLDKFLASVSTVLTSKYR
人糖化血红蛋白(购自英美特，货号KAY0025), UniProt P68871, 2-147 limits assumed, chain 2 of 2: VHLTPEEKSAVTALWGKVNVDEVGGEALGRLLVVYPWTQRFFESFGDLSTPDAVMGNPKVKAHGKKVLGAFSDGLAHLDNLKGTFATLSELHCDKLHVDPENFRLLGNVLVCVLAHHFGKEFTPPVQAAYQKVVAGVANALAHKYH

Tests used:
[1] = target: 人糖化血红蛋白(购自英美特，货号KAY0025) (人 (human)) (UniProt P69905); test: BLI, antibody captured on AMC sensor, antigen in graded dilutions in PBST
[2] = target: 人糖化血红蛋白(购自英美特，货号KAY0025) (人 (human)) (UniProt P69905); test: ELISA, antigen coated at 5 ug/ml, antibody at 125 ng/ml, goat anti-mouse IgG-HRP
[3] = target: 人糖化血红蛋白(购自英美特，货号KAY0025) (人 (human)) (UniProt P69905); test: ELISA, antigen coated at 5 ug/ml, antibody at 250 ng/ml, goat anti-mouse IgG-HRP
[4] = target: 人糖化血红蛋白(购自英美特，货号KAY0025) (人 (human)) (UniProt P69905); test: ELISA, antigen coated at 5 ug/ml, antibody at 1000 ng/ml, goat anti-mouse IgG-HRP
[5] = target: 人糖化血红蛋白(购自英美特，货号KAY0025) (人 (human)) (UniProt P69905); test: ELISA, antigen coated at 5 ug/ml, antibody at 62.5 ng/ml, goat anti-mouse IgG-HRP
[6] = target: 人糖化血红蛋白(购自英美特，货号KAY0025) (人 (human)) (UniProt P69905); test: ELISA, antigen coated at 5 ug/ml, antibody at 31.25 ng/ml, goat anti-mouse IgG-HRP
[7] = target: 人糖化血红蛋白(购自英美特，货号KAY0025) (人 (human)) (UniProt P69905); test: ELISA, antigen coated at 5 ug/ml, antibody at 0 ng/ml (blank), goat anti-mouse IgG-HRP
人糖化血红蛋白(购自英美特，货号KAY0025) = 人糖化血红蛋白(购自英美特，货号KAY0025) (人 (human), UniProt P69905 2-142; P68871 2-147, 糖化 (HbA1c: 与葡萄糖结合); site not given); test: BLI, antibody captured on AMC sensor, antigen in graded dilutions in PBST

Kd [1]: 322 nM
koff [1]: 0.000997 s⁻¹
kon [1]: 3100 M⁻¹ s⁻¹
OD值 (OD 450nm (参考630nm)) [2]: 0.899
OD值 (OD 450nm (参考630nm)) [3]: 1.1
OD值 (OD 450nm (参考630nm)) [4]: 1.82
OD值 (OD 450nm (参考630nm)) [5]: 0.491
OD值 (OD 450nm (参考630nm)) [6]: 0.289
OD值 (OD 450nm (参考630nm)) [7]: 0.066
Molecule: 对照 (antibody)

Kd (人糖化血红蛋白(购自英美特，货号KAY0025)): 29.4 nM
koff (人糖化血红蛋白(购自英美特，货号KAY0025)): 0.000524 s⁻¹
kon (人糖化血红蛋白(购自英美特，货号KAY0025)): 17800 M⁻¹ s⁻¹
B1: Anti-HbA1C 17C9mut2 (antibody, V domains shown)
VH: QVQLEESGPGLVAPSQSLSITCTVSGFSLTSYGVHWVRQPPGKGLEWLGVIWAGGSTNYNSALMSRLTISKDNSKRQVFLKMNSLQTDDTAMYYCARDYYGYDFVYWGQGTLVTVSA
VL: DIVLTQSPATLSVTPGDSVSLSCRASQSVRNNLHWYQQKSHESPRLLIKYASQSISGIPSRFSGSGSGTNFTLSINTVETEDFGMYFCQQSNSWPLTFGAGTKLELKR

Kd (人糖化血红蛋白(购自英美特，货号KAY0025)): 29.3 nM
koff (人糖化血红蛋白(购自英美特，货号KAY0025)): 0.000531 s⁻¹
kon (人糖化血红蛋白(购自英美特，货号KAY0025)): 18100 M⁻¹ s⁻¹
B2: Anti-HbA1C 17C9mut1 (antibody, mouse IgG1, kappa, V domains shown)
VH: B1 VH
VL: B1 VL with N70D
notes: Detected with goat anti-mouse IgG-HRP and captured on AMC sensors

Residue numbers refer to the chain shown, from its start. One block for each molecule: values may come before it.
